{"source": "patent US4753984A", "about": "(priority 1985, dated 1988)", "key": {"[1]": {"assay": "Localization of radiolabelled Daunorubicin drugs in organs of 3 LL tumor-bearing mice", "details": "i.v. 100 micrograms Daunorubicin equivalent, 48 or 72 hours after injection", "description": "The radiolabelled Daunorubicin drugs (14-^14 C) are injected intravenously 14 days after implantation of 10^5 3 LL cells. Either 100 micrograms of free Daunorubicin (5×10^5 cpm), or 100 micrograms of Daunorubicin in macromolecular form (5×10^5 cpm) is injected. Localization is measured after the intravenous injection of various products.\nThe mice are sacrificed by cervical elongation 48 hours or 72 hours after injection. The organs are removed, dissolved by a tissue solubilizing agent (NCS Amersham) at a rate of 200 mg to 300 mg of organ/ml of solubilizing agent, then counted in a liquid scintillant. […] The results are recapitulated in FIG. 3."}, "[2]": {"details": "mouse"}}}
{"substance": "polycarboxylated linear polymer of 2-N-acryloylamino-2-hydroxymethyl-1,3-propanediol substituted by the -Gly-Gly-L-Tyr-L-Leu-Daunorubicin sequence [Example 2]", "values": [{"measurement": "radioactivity of the spleen", "setting": "[1]", "value": "weak radioactivity"}, {"measurement": "persistence of the Daunorubicin in the organism (organ radioactivity)", "setting": "[1]; FIG. 3", "value": "general persistence of the Daunorubicin in the organism"}, {"measurement": "form of the radioactive material in the plasma (thin layer silica chromatography)", "setting": "[2]; after intraperitoneal injection", "value": "also found in macromolecular form"}, {"measurement": "form of the radioactive material in the plasma (thin layer chromatography)", "setting": "[2]; after intravenous injection", "value": "always present in macromolecular form"}, {"measurement": "initial radioactivity found in plasma", "setting": "[2]; at the end of 48 hours, 3 mg polymer (100 micrograms Daunorubicin), FIG. 2", "value": 20, "unit": "%"}, {"measurement": "resistance of the tetrapeptide between polymer and drug to seric proteases", "setting": "[2]; in vivo plasma", "value": "relatively resistant to seric proteases"}]}
